This is an account of results in ChEMBL document CHEMBL1134251, “Quinazolines as cyclin dependent kinase inhibitors” (Bioorg Med Chem Lett, 2001).

In this experiment the target is Cyclin-dependent kinase 2/cyclin E (Homo sapiens, UniProt P24941). As to the kind of experiment: In vitro inhibitory activity against human cyclin dependent kinase (CDK2/E). In kind it is protein-complex assay.

As for `CC(C)(C)Nc1nc(C(F)(F)F)nc2ccc(-c3cccc(N)c3)cc12`, half-maximal inhibition (IC50) required 0.6 µM.
